Legend:
A*0101 = molecular target: T1, A*0101 (human, UniProt P61769 21-119); assay: HLA binding, candidate-epitope table; assay not described
T1 construct: MHC class I molecule; form in the assay not described; also called HLA-A*0101

HLA-A2.1 = molecular target: T2, HLA-A2.1 (human); assay: competition with radiolabeled HBV Core.18 peptide for purified HLA-A2.1
T2 construct: MHC class I molecule, purified; also called purified HLA-A2.1 molecules

A*2402 = molecular target: T3, A*2402 (human); assay: HLA binding, candidate-epitope table; assay not described
T3 construct: MHC class I molecule; form in the assay not described; also called HLA-A*2402

PTDSPSYTYY (also called 57.0104) [CEA.418.D3]
IC50 (A*0101): 1.1 nM

VTDLGLSY (also called 57.0003) [MAGE2.179.D3]
IC50 (A*0101): 2.7 nM

YLQLFFGIEV (analog) [MAGE2.157 F5]
IC50 (HLA-A2.1): 212 nM

YLQLIFGIEV (analog) [MAGE2.157 I5]
IC50 (HLA-A2.1): 476 nM

SYVKVLHHTF (also called 57.0088) [MAGE2.282F10]
IC50 (A*2402): 34 nM

IMIGVLVGV [CEA.691]
IC50 (HLA-A2.1): 54 nM

IMMGVLVGV (analog) [CEA.691 M3]
IC50 (HLA-A2.1): 27 nM

IMIGHLVGV (analog) [CEA.691 H5]
IC50 (HLA-A2.1): 16 nM

KVAEIVHFL (analog) [MAGE3.112 I5]
IC50 (HLA-A2.1): 66 nM

— patent publication US20060018915A1 (EPIMUNNE, published 2006)
